Experimental data from paper PMC3834833 (Nucleic Acids Research, 2013).
Several values for one entry are separate records, joined by “and”; a condition that tells them apart may be missing. Equal entries are not always repeated.

Biological target: the molecule itself
Test: glycerol gradient centrifugation; 10 ml linear 20-40% (v/v) glycerol gradient, 10 mM Tris-HCl pH 8.0, 100 mM NaCl, 1 mM EDTA, 2 mM DTT; SW-41 rotor, 38 000 rpm, 24 h, 8°C; fractions by SDS-PAGE and Coomassie; S value and molecular weight by comparison with protein markers; major oligomeric state

Protein | stoichiometry N
translin variant Ct-1 (E206A) (natural protein, human, UniProt Q15631 1-228, looked up, translin, human; mutant of the pQE-9 translin plasmid made by QuikChange site-directed mutagenesis; Same construct as m1 with the stated substitution; also called C-terminal 1; source: E. coli, purified) MSVSEIFVELQGFLAAEQDIREEIRKVVQSLEQTAREILTLLQGVHQGAGFQDIPKRCLKAREHFGTVKTHLTSLKTKFPAEQYYRFHEHWRFVLQRLVFLAAFVVYLETETLVTREAVTEILGIEPDREKGFHLDVEDYLSGVLILASELSRLSVNSVTAGDYSRPLHISTFINELDSGFRLLNLKNDSLRKRYDGLKYDVKKVAEVVYDLSIRGFNKETAAACVEK | 2 subunits and 2.1 subunits
translin variant Ct-2 (R153A) (natural protein, human, UniProt Q15631 1-228, looked up, translin, human; mutant of the pQE-9 translin plasmid made by QuikChange site-directed mutagenesis; Same construct as m1 with the stated substitution; also called C-terminal 2; source: E. coli, purified) MSVSEIFVELQGFLAAEQDIREEIRKVVQSLEQTAREILTLLQGVHQGAGFQDIPKRCLKAREHFGTVKTHLTSLKTKFPAEQYYRFHEHWRFVLQRLVFLAAFVVYLETETLVTREAVTEILGIEPDREKGFHLDVEDYLSGVLILASELSALSVNSVTAGDYSRPLHISTFINELDSGFRLLNLKNDSLRKRYDGLKYDVKKVEEVVYDLSIRGFNKETAAACVEK | 2 subunits
